# Test results taken from patent US20190284149A1, “ARYL HYDROCARBON RECEPTOR MODULATOR” (ARIAGEN, INC., priority 2014, published 2019).
# pEC50: −log10 of the molar value.
# Biological target: T1, AhR receptor (Homo sapiens, UniProt P35869)
# T1 construct: expression of native (Human Hepatoma Huh-7) AhR receptor reporter gene cells; endogenous in cells; host or cells: Human hepatoma Huh-7 reporter cells (firefly luciferase under receptor-specific response elements)
# T1 sequence (P35869 11-848): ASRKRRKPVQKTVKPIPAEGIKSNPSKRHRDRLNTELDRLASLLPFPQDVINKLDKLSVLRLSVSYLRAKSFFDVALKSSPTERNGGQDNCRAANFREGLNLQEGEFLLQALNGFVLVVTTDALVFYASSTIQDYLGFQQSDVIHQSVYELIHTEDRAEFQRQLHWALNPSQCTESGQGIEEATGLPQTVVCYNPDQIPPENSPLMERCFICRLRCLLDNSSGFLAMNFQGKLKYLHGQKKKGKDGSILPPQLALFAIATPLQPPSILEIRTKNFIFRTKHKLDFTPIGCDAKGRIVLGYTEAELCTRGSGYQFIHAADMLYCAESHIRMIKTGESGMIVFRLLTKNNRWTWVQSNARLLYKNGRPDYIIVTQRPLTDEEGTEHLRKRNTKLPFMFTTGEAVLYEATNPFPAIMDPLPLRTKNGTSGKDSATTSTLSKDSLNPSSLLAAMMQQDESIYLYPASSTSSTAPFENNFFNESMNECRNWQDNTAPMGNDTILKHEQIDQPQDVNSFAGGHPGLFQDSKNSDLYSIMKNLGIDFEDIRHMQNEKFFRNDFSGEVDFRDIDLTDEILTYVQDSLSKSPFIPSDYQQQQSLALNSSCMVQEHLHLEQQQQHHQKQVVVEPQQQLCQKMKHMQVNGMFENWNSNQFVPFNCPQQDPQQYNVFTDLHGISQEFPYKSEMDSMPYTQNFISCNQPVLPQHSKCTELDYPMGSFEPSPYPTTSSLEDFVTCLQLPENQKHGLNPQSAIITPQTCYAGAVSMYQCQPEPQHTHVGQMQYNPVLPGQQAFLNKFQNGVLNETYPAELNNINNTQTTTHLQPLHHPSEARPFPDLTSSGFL
# Test: AhR agonism assay (luciferase reporter gene cells)
# Format: cell-based
# Experimental: Assay Materials (plasmids): expression of native (Human Hepatoma Huh-7) AhR receptor reporter gene cells, the reporter vector includes functional firefly luciferase gene linked to upstream receptor-specific genetic response elements (GRE).
# The AhR agonism assay comprises the following three steps:
# 1. Cell implantation: a suspension of AhR receptor cells was prepared in cell recovery medium (CRM; FBS containing 10% activated carbon). Then, the prepared suspension (100 μl) was dispensed into wells of a white 96-well culture plate.
# 2. Right before the beginning of the experiment, Master Stocks were diluted to “2× concentration” treatment media with appropriate compound screening media (CSM: FBS containing 10% activated carbon). […]
# 3. Fluorescence detection and analysis: after completion of the incubation, the treatment media were discarded and 100 μL/well of luciferase detection reagent was added. The Ave RLU (average relative fluorescence intensity) of each well and the coefficient of variation for each experimental group were determined. The activity of AhR receptor with various concentrations of the test compounds was quantitatively determined using a ratio of Ave RLU^Test Cmpd of various concentrations of the test compounds in the experimental group to Ave RLU^Vehicle of the blank control group, and fold activation and EC50 were determined. […]
row,pEC50,SMILES
1,4.00 to 5.00,COC(=O)c1ccc(C(=O)c2c[nH]c3ccccc23)s1 [Compound 11]
2,6.00 to 9.00,COC(=O)c1cccc(C(=O)c2c[nH]c3ccccc23)n1 [Compound 16]
